Experimental data reported in ChEMBL document CHEMBL5728057, “3-((hetero-)aryl)-8-amino-2-oxo-1,3-diaza-spiro-[4.5]-decane derivatives” (2020).

The chains behind the UniProt entries cited, without tags or fusion partners. Where a name states a change or a piece, a line headed by the entry shows the natural chain unless it says otherwise.
UniProt P35372, whole entry, looked up: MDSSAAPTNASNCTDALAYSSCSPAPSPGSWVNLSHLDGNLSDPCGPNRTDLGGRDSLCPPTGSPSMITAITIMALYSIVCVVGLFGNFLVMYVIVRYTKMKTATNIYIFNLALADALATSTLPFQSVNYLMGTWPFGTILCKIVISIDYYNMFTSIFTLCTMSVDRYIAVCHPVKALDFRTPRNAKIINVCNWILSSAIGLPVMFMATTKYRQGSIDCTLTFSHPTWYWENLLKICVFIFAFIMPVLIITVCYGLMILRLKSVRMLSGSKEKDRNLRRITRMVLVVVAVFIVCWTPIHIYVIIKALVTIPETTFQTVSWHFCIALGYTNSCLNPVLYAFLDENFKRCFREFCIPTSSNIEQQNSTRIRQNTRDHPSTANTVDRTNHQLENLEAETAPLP
UniProt P41146: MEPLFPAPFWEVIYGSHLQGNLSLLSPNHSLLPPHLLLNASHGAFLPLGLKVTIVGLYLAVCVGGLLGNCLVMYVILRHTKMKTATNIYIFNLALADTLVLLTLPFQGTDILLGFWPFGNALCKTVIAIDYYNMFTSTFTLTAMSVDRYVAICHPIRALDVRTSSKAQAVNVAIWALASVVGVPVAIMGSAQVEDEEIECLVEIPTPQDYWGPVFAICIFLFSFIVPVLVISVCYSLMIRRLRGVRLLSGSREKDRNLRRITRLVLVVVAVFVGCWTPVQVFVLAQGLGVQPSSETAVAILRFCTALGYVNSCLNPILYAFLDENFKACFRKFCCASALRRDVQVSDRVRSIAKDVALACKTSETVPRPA

Columns and labels:
Mu-type opioid receptor = Mu-type opioid receptor (Homo sapiens, UniProt P35372); experiment: Human Mu-Opioid Peptide (hMOP) Receptor Binding Assay: The hMOP receptor binding assay was performed as homogeneous SPA-assay (scintillation proximity assay) using the assay buffer 50 mM TRIS-HCl (pH 7.4) supplemented with […] bovine serum albumin (Sigma-Aldrich Co. St. Louis. Mo.). The final assay volume (250 l/well) included 1 nM of [N-allyl-2.3-3H]naloxone as ligand (PerkinElmer Life Sc
Nociceptin receptor = Nociceptin receptor (Homo sapiens, UniProt P41146); experiment: Human Nociceptin/Orphanin FQ Peptide (hNOP) Receptor Binding Assay: The hNOP receptor binding assay was performed as homogeneous SPA-assay (scintillation proximity assay) using the assay buffer 50 mM TRIS-HCl. 10 mM MgCl2. 1 mM EDTA (pH 7.4). The final assay volume (250 μl/well) included 0.5 nM of [leucyl-3H]nociceptin as ligand (PerkinElmer Life Sciences. Inc. Boston. Mass. USA). and either test

## CN(c1ncc(N2C[C@]3(CC[C@](c4ccccc4)(N(C)C)CC3)NC2=O)cn1)C1CCOCC1
Mu-type opioid receptor
  Ki: 7030 nM
Nociceptin receptor
  Ki: 12 nM

## CN(C)[C@]1(c2ccccc2)CC[C@]2(CC1)CN(c1cccc3ncsc13)C(=O)N2
Mu-type opioid receptor
  Ki: 2310 nM
Nociceptin receptor
  Ki: 30 nM

## CN(C)[C@]1(c2ccccc2)CC[C@]2(CC1)CN(c1csc(-c3ccccc3)n1)C(=O)N2
Mu-type opioid receptor
  Ki: 2250 nM
Nociceptin receptor
  Ki: 125 nM

## CN(C)[C@]1(c2ccccc2)CC[C@]2(CC1)CN(c1cnccc1C#N)C(=O)N2
Mu-type opioid receptor
  Ki: 4680 nM
Nociceptin receptor
  Ki: 32 nM

## Cc1ncc(N2C[C@]3(CC[C@](c4ccccc4)(N(C)C)CC3)N(CC3(O)CCC3)C2=O)cn1
Mu-type opioid receptor
  Ki: 61 nM
Nociceptin receptor
  Ki: 12 nM

## CN(C)[C@]1(c2ccccc2)CC[C@]2(CC1)CN(c1cnc(N3CCNC(=O)C3)nc1C(F)(F)F)C(=O)N2
Mu-type opioid receptor
  Ki: 5700 nM
Nociceptin receptor
  Ki: 23 nM

## COc1ccccc1CN1C(=O)N(c2cnc(C)nc2)C[C@]12CC[C@](c1ccccc1)(N(C)C)CC2
Mu-type opioid receptor
  Ki: 240 nM
Nociceptin receptor
  Ki: 22 nM

## N[C@]1(c2ccccc2)CC[C@]2(CC1)CN(c1cnc(C(F)(F)F)nc1)C(=O)N2CC1(O)CCC1
Mu-type opioid receptor
  Ki: 3060 nM
Nociceptin receptor
  Ki: 540 nM

## CN(C)[C@]1(c2ccccc2)CC[C@]2(CC1)CN(c1ccc(S(C)(=O)=O)nc1)C(=O)N2
Mu-type opioid receptor
  Ki: 5720 nM
Nociceptin receptor
  Ki: 13 nM

## CN(C)[C@]1(c2ccccc2)CC[C@]2(CC1)CN(c1cnc(-c3ccc4ncsc4c3)nc1)C(=O)N2
Mu-type opioid receptor
  Ki: 4630 nM
Nociceptin receptor
  Ki: 8 nM

## Cc1cccc(N2C[C@]3(CC[C@](c4ccccc4)(N(C)C)CC3)NC2=O)c1
Mu-type opioid receptor
  Ki: 2240 nM
Nociceptin receptor
  Ki: 87 nM

## CN(C)[C@]1(c2ccccc2)CC[C@]2(CC1)CN(c1c(F)cc(C#N)cc1F)C(=O)N2
Mu-type opioid receptor
  Ki: 6380 nM
Nociceptin receptor
  Ki: 45 nM

## Cn1nc(C(F)(F)F)cc1N1C[C@]2(CC[C@](c3cccc(F)c3)(N(C)C)CC2)N(CC2CC2)C1=O
Mu-type opioid receptor
  Ki: 925 nM
Nociceptin receptor
  Ki: 12 nM

## COCCN1C(=O)N(c2cnc(C#N)nc2OC)C[C@]12CC[C@](c1ccccc1)(N(C)C)CC2
Mu-type opioid receptor
  Ki: 2100 nM
Nociceptin receptor
  Ki: 10.1 nM

## CN(C)[C@]1(c2ccccc2)CC[C@]2(CC1)CN(c1cnc(-c3ccccn3)nc1)C(=O)N2
Nociceptin receptor
  Ki: 5 nM

## CC(=O)n1cc(N2C[C@]3(CC[C@](c4ccccc4)(N(C)C)CC3)NC2=O)c2ccccc21
Nociceptin receptor
  Ki: 11 nM

## CN(C)[C@]1(c2ccccc2)CC[C@]2(CC1)CN(c1csc(-c3ccncc3)n1)C(=O)N2
Nociceptin receptor
  Ki: 450 nM

## CN(C)[C@]1(c2ccccc2)CC[C@]2(CC1)CN(c1cnc(-c3ccc(F)c(F)c3)nc1)C(=O)N2
Nociceptin receptor
  Ki: 20 nM

## CN(C)[C@]1(c2ccccc2)CC[C@]2(CC1)CN(c1ccccc1C(N)=O)C(=O)N2CC1(O)CCC1
Nociceptin receptor
  Ki: 5 nM

## Cc1cc(C(F)(F)F)ncc1N1C[C@]2(CC[C@](c3cccc(C(F)(F)F)c3)(N(C)C)CC2)NC1=O
Nociceptin receptor
  Ki: 1220 nM

## CN(C)S(=O)(=O)c1ccc(N2C[C@]3(CC[C@](c4ccccc4)(N(C)C)CC3)N(CC3CCC3)C2=O)c(C(F)(F)F)c1
Nociceptin receptor
  Ki: 3.3 nM

## CN(C)[C@]1(c2cccc(F)c2)CC[C@]2(CC1)CN(c1ccc(S(C)(=O)=O)cn1)C(=O)N2
Nociceptin receptor
  Ki: 11 nM

## CN(C)[C@]1(c2ccccc2)CC[C@]2(CC1)CN(c1ccccc1OCC(=O)O)C(=O)N2
Nociceptin receptor
  Ki: 635 nM

## Cc1cnccc1N1C[C@]2(CC[C@](c3ccccc3)(N(C)C)CC2)NC1=O
Nociceptin receptor
  Ki: 52 nM

## CN(C)[C@]1(c2ccccc2)CC[C@]2(CC1)CN(c1ccc(S(C)(=O)=O)cn1)C(=O)N2
Nociceptin receptor
  Ki: 14 nM

## CN[C@]1(c2ccccc2)CC[C@]2(CC1)CN(c1ccccc1)C(=O)N2CC(=O)N(C)C
Nociceptin receptor
  Ki: 955 nM

## CN(C)[C@]1(c2ccccc2)CC[C@]2(CC1)CN(c1ccc(OC(F)(F)F)cc1)C(=O)N2
Nociceptin receptor
  Ki: 27 nM

## CN(C)[C@]1(c2ccccc2)CC[C@]2(CC1)CN(c1cccc(OC(F)(F)F)c1)C(=O)N2
Nociceptin receptor
  Ki: 42 nM

## Cc1cc(C(=O)N(C)c2ncc(N3C[C@]4(CC[C@](c5ccccc5)(N(C)C)CC4)NC3=O)cn2)n(C)n1
Nociceptin receptor
  Ki: 55 nM

## CN(C)[C@]1(c2ccccc2)CC[C@]2(CC1)CN(c1ccc(C(N)=O)cn1)C(=O)N2
Nociceptin receptor
  Ki: 31 nM

## Cc1cc(N2CCNC(=O)C2)ncc1N1C[C@]2(CC[C@](c3ccccc3)(N(C)C)CC2)NC1=O
Nociceptin receptor
  Ki: 19 nM

## CN(C)[C@]1(c2ccccc2)CC[C@]2(CC1)CN(c1cnc(NC(=O)c3ccccc3)nc1)C(=O)N2
Nociceptin receptor
  Ki: 18 nM

## CN(C)[C@]1(c2ccccc2)CC[C@]2(CC1)CN(c1cnccc1CC(N)=O)C(=O)N2
Nociceptin receptor
  Ki: 150 nM

## Cc1ncc(N2C[C@]3(CC[C@](c4ccccc4)(N(C)C)CC3)NC2=O)c(C)n1
Nociceptin receptor
  Ki: 27 nM

## Cc1cc(C(F)(F)F)ncc1N1C[C@]2(CC[C@](c3cccc(Cl)c3)(N(C)C)CC2)NC1=O
Nociceptin receptor
  Ki: 88 nM

## Cc1cc(C(N)=O)cnc1N1C[C@]2(CC[C@](c3ccccc3)(N(C)C)CC2)NC1=O
Nociceptin receptor
  Ki: 27 nM

## CN[C@]1(c2ccccc2)CC[C@]2(CC1)CN(c1ccc(S(C)(=O)=O)cc1)C(=O)N2CC1CC1
Nociceptin receptor
  Ki: 8 nM

## CN[C@]1(c2ccccc2)CC[C@]2(CC1)CN(c1cnc(C#N)nc1OC)C(=O)N2CCCOC
Nociceptin receptor
  Ki: 55.5 nM

## Cc1ncc(N2C[C@]3(CC[C@](c4ccccc4)(N(C)C)CC3)NC2=O)cn1
Nociceptin receptor
  Ki: 205 nM

## CN(C)[C@]1(c2ccccc2)CC[C@]2(CC1)CN(c1ccc(-c3ccccc3)s1)C(=O)N2
Nociceptin receptor
  Ki: 119 nM

## CN(C)[C@]1(c2ccccc2)CC[C@]2(CC1)CN(c1cnc(NC3CCOCC3)nc1)C(=O)N2
Nociceptin receptor
  Ki: 22 nM

## Cc1nc(N2CCOCC2)ncc1N1C[C@]2(CC[C@](c3ccc(F)cc3)(N(C)C)CC2)NC1=O
Nociceptin receptor
  Ki: 240 nM

## CN(C)[C@]1(c2ccccc2)CC[C@]2(CC1)CN(c1cncnc1)C(=O)N2
Nociceptin receptor
  Ki: 570 nM

## CN1CCN(C(=O)c2ncc(N3C[C@]4(CC[C@](c5ccccc5)(N(C)C)CC4)NC3=O)cn2)CC1
Nociceptin receptor
  Ki: 19 nM

## CN[C@]1(c2ccccc2)CC[C@]2(CC1)CN(c1cnc(C#N)nc1OC)C(=O)N2
Nociceptin receptor
  Ki: 80 nM

## CN(CC1CC1)[C@]1(c2ccccc2)CC[C@]2(CC1)CN(c1cnc(C(F)(F)F)nc1)C(=O)N2
Nociceptin receptor
  Ki: 540 nM

## CCN[C@]1(c2ccccc2)CC[C@]2(CC1)CN(c1cnc(C(F)(F)F)nc1)C(=O)N2CC1(O)CCC1
Nociceptin receptor
  Ki: 155 nM

## CN(C)[C@]1(c2ccccc2)CC[C@]2(CC1)CN(c1cnc(-c3cncnc3)nc1)C(=O)N2
Nociceptin receptor
  Ki: 130 nM

## CCN(C)[C@]1(c2ccccc2)CC[C@]2(CC1)CN(c1ccc(C#N)cc1)C(=O)N2CC1CCC1
Nociceptin receptor
  Ki: 107 nM

## CC(=O)N1CCN(c2ncc(N3C[C@]4(CC[C@](c5ccccc5)(N(C)C)CC4)NC3=O)c(C(F)(F)F)n2)CC1
Nociceptin receptor
  Ki: 20 nM

## Cc1cccnc1N1C[C@]2(CC[C@](c3ccccc3)(N(C)C)CC2)NC1=O
Nociceptin receptor
  Ki: 110 nM

## Cc1cc(-c2ccccn2)ncc1N1C[C@]2(CC[C@](c3ccccc3)(N(C)C)CC2)NC1=O
Nociceptin receptor
  Ki: 5 nM

## CN(C)[C@]1(c2cccc(F)c2)CC[C@]2(CC1)CN(c1ccc(S(C)(=O)=O)cn1)C(=O)N2CC1CC1
Nociceptin receptor
  Ki: 5 nM

## CN(C)[C@]1(c2ccccc2)CC[C@]2(CC1)CN(c1ccc(C(F)(F)F)nc1)C(=O)N2
Nociceptin receptor
  Ki: 52 nM

## Cc1cc(C(F)(F)F)ncc1N1C[C@]2(CC[C@](c3cccs3)(N(C)C)CC2)NC1=O
Nociceptin receptor
  Ki: 23 nM

## CN(C)[C@]1(c2ccccc2)CC[C@]2(CC1)CN(c1cnc(N3CCC(O)CC3)nc1)C(=O)N2
Nociceptin receptor
  Ki: 11 nM

## CN(C)[C@]1(c2ccccc2)CC[C@]2(CC1)CN(c1cnccc1F)C(=O)N2
Nociceptin receptor
  Ki: 105 nM

## CN[C@]1(c2ccccc2)CC[C@]2(CC1)CN(c1ccc(S(=O)(=O)N(C)C)cc1C(F)(F)F)C(=O)N2CC1CCC1
Nociceptin receptor
  Ki: 11 nM

## CN[C@]1(c2ccccc2)CC[C@]2(CC1)CN(c1ccc(C#N)cc1OC)C(=O)N2CC1(O)CCC1
Nociceptin receptor
  Ki: 24 nM
